Structures are written as SMILES. A value given as a limit tells only on which side of the number the result lay.

By UniProt entry, the sequences of proteins in these tests, tags left out.
UniProt O14791, whole entry S342G/I384M: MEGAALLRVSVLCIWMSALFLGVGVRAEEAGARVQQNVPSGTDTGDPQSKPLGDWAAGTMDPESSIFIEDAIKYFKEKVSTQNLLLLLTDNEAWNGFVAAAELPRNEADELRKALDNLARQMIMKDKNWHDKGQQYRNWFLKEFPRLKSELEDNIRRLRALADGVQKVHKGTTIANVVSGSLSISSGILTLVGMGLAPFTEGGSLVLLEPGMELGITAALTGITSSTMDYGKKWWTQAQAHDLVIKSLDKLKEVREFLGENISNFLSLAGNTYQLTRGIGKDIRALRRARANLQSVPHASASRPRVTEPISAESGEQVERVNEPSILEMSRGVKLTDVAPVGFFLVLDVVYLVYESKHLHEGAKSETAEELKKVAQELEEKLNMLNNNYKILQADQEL

The target in this assay is APOL1 (Homo sapiens, UniProt O14791). In words: MultiTox-Fluor Multiplex Cytotoxicity Assay in tet-inducible APOL1 T-REx-HEK293 cells (cell rescue, ratio of dead to live cells). The following applies: read-out: IP50 (i.e., IC50 for cell proliferation); tet-inducible transgenic APOL1 T-REx-HEK293 cell lines, 50 ng/mL tet, 24 hours.

`CCc1cc2c(s1)CCOC21CCN(Cc2cnn(C)c2)CC1C` (stereo not drawn): the IC50 was in the range of 500 to 1000 nM.
In the case of `CC1COC2(CCN(Cc3cnn(C)c3)CC2)c2cc(Cl)sc21` (single isomer, unassigned) it was 100 to 500 nM; in that of `C[C@H]1C[C@@]2(CCN1Cc1cnn(CCS(C)(=O)=O)c1)OCC(O)(C(F)(F)F)c1cc(Cl)sc12` (stereo partly drawn) [Compound 852, (2′S,7R)-2-chloro-2′-methyl-1′-[[1-(2-methylsulfonylethyl)pyrazol-4-yl]methyl]-4-(trifluoromethyl)spiro[5H-thieno[2,3-c]pyran-7,4′-piperidine]-4-ol], less than 100 nM.

These data come from US20250171459A1, “2-METHYL-4',5'-DIHYDROSPIRO[PIPERIDINE-4,7'-THIENO[2,3-C]PYRAN] DERIVATIVES AS INHIBITORS OF APOL1 AND METHODS OF USING SAME” (Vertex Pharmaceuticals Incorporated, priority 2022, published 2025).
